{"source": "patent US7049331B2", "about": "“1,2,4-thiadiazole derivatives as melanocortin receptor modulators” (Ortho-McNeil Pharmaceutical, Inc., priority 2001, dated 2006)", "test_system": "human sebocytes", "assay": "Evaluation of Sebaceous Lipid Synthesis by Sebaceous Cells (14C acetate, HPTLC)", "assay_type": "cell-based", "details": "Cholera toxin & Bovine pituitary extract; for % Inh Triglyceride synthesis: Cell Sex F/M"}
{"compound": "COc1ccccc1-c1nc(Nc2ccccc2)s[n+]1-c1ccccc1OC.[Br-]", "note": "[Compound 74, 2-(2-methoxyphenyl)-3-(2-methoxyphenyl)-5-phenylamino-[1,2.4]thiadiazol-2-ium]", "values": [{"measurement": "% Inh Triglyceride synthesis", "setting": "0.4 μM", "result": 0, "unit": "%"}, {"measurement": "% Inh Cholesterol ester synthesis", "setting": "0.4 μM, Cell Sex F", "result": 85, "unit": "%"}, {"measurement": "% Inh Wax ester synthesis", "setting": "0.4 μM, Cell Sex F", "result": 70, "unit": "%"}, {"measurement": "% Inh Cholesterol ester synthesis", "setting": "0.4 μM, Cell Sex M", "result": 64, "unit": "%"}, {"measurement": "% Inh Wax ester synthesis", "setting": "0.4 μM, Cell Sex M", "result": 50, "unit": "%"}, {"measurement": "% Inh Triglyceride synthesis", "setting": "0.6 μM", "result": 0, "unit": "%"}, {"measurement": "% Inh Cholesterol ester synthesis", "setting": "0.6 μM, Cell Sex F", "result": 88, "unit": "%"}, {"measurement": "% Inh Unknown lipid synthesis", "setting": "0.6 μM, Cell Sex F", "result": "85/80%"}, {"measurement": "% Inh Wax ester synthesis", "setting": "0.6 μM, Cell Sex F", "result": 67, "unit": "%"}, {"measurement": "% Inh Cholesterol ester synthesis", "setting": "0.6 μM, Cell Sex M", "result": 76, "unit": "%"}, {"measurement": "% Inh Wax ester synthesis", "setting": "0.6 μM, Cell Sex M", "result": 42, "unit": "%"}]}
